PINK1 expr mod – modulators of PINK1 expression | PINK1 immunofluorescence, high-content cytometry, 24 h | Potency, µM (highest dose often 76.6 µM), for the others: top-dose activation (PINK1 increase), hits mostly activators | 0.2% of 410,000 active | AID 624263; active = well fitted activation curve with a large enough effect; inconclusive = small, poorly fitted or top-dose-only effect; cell line not stated here; note: potency is the fitted concentration of half-maximal effect; % of control where 0% means no effect; nearly all actives have a fitted effect of over 65% in size
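Readout is PINK1 immunofluorescence, quantified alongside mitochondrial, cell and nuclear markers by laser-scanning microplate cytometry. Cells from a stable line were exposed to compound titrations (5 concentrations) for 24 hours, with CCCP controls.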
IL2 activator – activators of IL-2; 0.065% of 360,000 active; AID 652025; IL-2 activation reporter assay, cell-based qHTS; stimulated with anti-CD3/CD4/CD28 beads; in transgenic mouse T cells; activation, % (series mostly up to about 46 µM); in the data active = activation above about 50%; inconclusive = mostly about 30% to 49%; note: 0% is about no effect
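Unstimulated transgenic mouse T cells; 60-min compound exposure; bead-based TCR/CD4/CD28 stimulation; 18 h culture, 37 degrees C; dual fluorescence (EGFP, DsRed) plate cytometry.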
miR-21 FLuc – raises the signal of a miR-21 reporter; 340,000 tested, under 10 active; HeLa miR-21 FLuc reporter, luciferase, 48 h; Potency, µM (series often up to 38.3 µM), for inactives: at the highest dose reporter change, positive = more light; active = well fitted rising curve with a large enough effect; inconclusive = small, poorly fitted or top-dose-only effect; inactive = no such curve, though single readings can be large or run the other way;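 further: % of control where 0% means no effect; miR-21 action dims this reporter so a rising signal means less miR-21 action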
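Compounds were titrated across several concentrations (up to approximately 40 uM) and incubated 48 hours with HeLa miR-21-FLuc reporter cells (miR-21 target sequence downstream of FLuc, endogenous miR-21). Readout was firefly luciferase luminescence after lytic detection reagent.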
RXFP1 agonist – activates the human relaxin receptor RXFP1; Q9HBX9; HEK293T-RXFP1 cAMP TR-FRET, 30 min; response scale: percent of porcine relaxin response, buffer zero; Potency, µM (top dose mostly 57.5 µM), without a hit: top-dose activation, usual class: activators; 0.3% of 370,000 active; note: potency is the fitted concentration of half-maximal effect; % is set by controls: 0 for no effect and ±100 for the full control effect; nearly all actives have a fitted effect of over 60% in size
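cAMP rise read by TR-FRET after 30 min, 37C compound exposure (up to 58 uM) in RXFP1-transfected HEK293 cells with Ro 20174 present. EC50 from Hill-equation fits, with 29 nM porcine relaxin as 100% and buffer as basal.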
TCR activator – T cell receptor activation; AID 504894; primary human leukocytes, anti-CD3, IL-2 HTRF, 48 h; 330,000 tested, under 10 active; Potency, µM (series often up to 9.22 µM), for the others: at the highest dose activation of IL-2 secretion, hits mostly activators; note: % of control where 0% means no effect
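TCR engagement came from a-CD3 beads alone, with compounds added to primary human leukocytes for 48 hr. Secreted IL-2 bridged europium cryptate- and d2-labelled anti-IL-2 antibodies, giving FRET emission at 665nm after 320nm excitation.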
RXFP1 antag – RXFP1 (human) relaxin receptor antagonism | Q9HBX9 | HEK293-RXFP1, relaxin-stimulated cAMP HTRF, 30 min; stronger effect = lower value | activity change, negative = inhibition, % at 57.5 µM | 0.59% of 350,000 active | AID 1259400;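 active = activity change of -60% or lower, but not beyond a set lower limit; inconclusive = change between -60% and -40%, or beyond the set limit; inactive = change above -40%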; note: % is set by controls: 0 for no effect and ±100 for the full control effect
An asterisk follows results filed as active; ? = inconclusive; / = no result given; [ ] = remark or other dose. An excerpt weighted towards active compounds, which were near 0.78% of everything screened. Unless noted, calls come from the whole dose curve; as a rule, active = well fitted curve in the direction sought with a large enough effect; inconclusive = small, poorly fitted or top-dose-only effect, or another doubt; inactive = no such curve, though single readings can be large; an effect the other way counts as inactive or inconclusive.

The opening six records (preview)
item	PINK1 expr mod	IL2 activator	miR-21 FLuc	RXFP1 agonist	TCR activator	RXFP1 antag	SMILES
1	3.1%	2.1	/	4.7%	2.7%	-66.2*	CC12CCC(=O)N1C(C(=O)N1CCN(S(=O)(=O)c3ccc(Br)cc3Cl)CC1)CS2 (stereo not given)
2	4.6%	0.8	/	-0.1%	-5.1%	14.9	CC12CCC(=O)N1C(C(=O)N1CCN(S(=O)(=O)c3ccccc3F)CC1)CS2 (stereo not given)
3	1.0%	-0.3	-1.0%	15.8µM*	2.4%	4.9	O=c1c2ccccc2cnn1Cc1n[nH]c(=S)n1-c1ccc(F)c(Cl)c1
4	2.7%	-0.5	10.9%	-0.1%	-1.2%	-64.3*	Cc1cc(C)c(Cn2c3ccccc3c3cnn(CC(=O)NCCN4CCOCC4)c(=O)c32)c(C)c1
5	-8.8%	-3.1	/	2.1%	-4.1%	-16.1	CCCCc1ccc(NC(=O)CSc2nc(=O)n(CCN(CC)CC)c3c2CCCC3)cc1
6	-2.8%	1.6	/	-0.2%	/	-85.3*	CCCCc1ccc(NC(=O)CSc2nc(=O)n(CCN(C)C)c3c2CCC3)cc1

All compounds of this part, from the start:
item	PINK1 expr mod	IL2 activator	miR-21 FLuc	RXFP1 agonist	TCR activator	RXFP1 antag	SMILES
1	3.1%	2.1	/	4.7%	2.7%	-66.2*	CC12CCC(=O)N1C(C(=O)N1CCN(S(=O)(=O)c3ccc(Br)cc3Cl)CC1)CS2 (stereo not given)
2	4.6%	0.8	/	-0.1%	-5.1%	14.9	CC12CCC(=O)N1C(C(=O)N1CCN(S(=O)(=O)c3ccccc3F)CC1)CS2 (stereo not given)
3	1.0%	-0.3	-1.0%	15.8µM*	2.4%	4.9	O=c1c2ccccc2cnn1Cc1n[nH]c(=S)n1-c1ccc(F)c(Cl)c1
4	2.7%	-0.5	10.9%	-0.1%	-1.2%	-64.3*	Cc1cc(C)c(Cn2c3ccccc3c3cnn(CC(=O)NCCN4CCOCC4)c(=O)c32)c(C)c1
5	-8.8%	-3.1	/	2.1%	-4.1%	-16.1	CCCCc1ccc(NC(=O)CSc2nc(=O)n(CCN(CC)CC)c3c2CCCC3)cc1
6	-2.8%	1.6	/	-0.2%	/	-85.3*	CCCCc1ccc(NC(=O)CSc2nc(=O)n(CCN(C)C)c3c2CCC3)cc1
7	/	/	/	/	/	7.5	CNC(=O)c1cnn(-c2nc(N)c3ncn([C@@H]4O[C@H](CO)[C@@H](O)[C@H]4O)c3n2)c1
8	1.0%	/	/	/	/	/	COc1cc(=O)n2c(c1C(=O)N(C)Cc1nccs1)CCN(Cc1cc3ccccc3s1)CC2
9	1.4%	/	/	/	/	/	COc1cc(=O)n2c(c1C(=O)NCc1ccco1)CCN(Cc1cc3ccccc3[nH]1)CC2
10	0.2%	4.7	0.6%	0.6%	-0.3%	-7.2	O=C1CCN(C(=O)c2cccs2)c2ccccc21
11	-1.8%	-6.5	?	1.6%	-4.3%	-97.6*	CN1C(=O)/C(=C\C(=O)c2cccs2)c2ccccc21
12	3.0%	3.4	-35.8%	-0.1%	7.7%[46.1 µM]	-62.9*	O=C1S/C(=C\C=C\c2ccco2)C(=O)N1c1ccc(O)cc1
13	5.6%	-1.9	-56.4%	0.2%	-1.5%[46.1 µM]	?	O=C1S/C(=C\C=C\c2ccco2)C(=O)N1c1ccccc1
14	0.2%	-3.0	16.7%	0.9%	0.0%	?	c1ccc(Nc2c3c(nc4ccccc24)CCC3)cc1
15	39.8µM*	-0.4	22.8%	0.5%	7.4%	-0.6	c1ccc2c(Nc3ccc4c(c3)OCCO4)c3c(nc2c1)CCC3
16	0.5%	/	/	/	/	/	CNC(=O)[C@@H]1C[C@H](Sc2nc3ccccc3[nH]2)CN1Cc1cccc(C(F)(F)F)c1
17	/	/	/	/	/	-10.4	COCCOCC(OC)OC
18	-1.6%	-1.1	?	-0.2%	-4.6%[46.1 µM]	-68.8*	Cc1ccc(N=Cc2cc3c(cc2O)OC(N)=C(C#N)C3c2ccccc2)cc1 (stereo not given)
19	-1.9%	/	-2.0%	2.2%	/	-64.7*	CCOC(=O)Cn1c(=O)oc2cc(S(=O)(=O)N3CCN(c4ccccc4OC)CC3)ccc21
20	6.5%	-0.5	-0.5%	-1.4%	1.6%	/	CCOC(=O)Cn1c(=O)oc2cc(S(=O)(=O)N3CCN(c4ccccn4)CC3)ccc21
21	-2.3%	-0.7	-5.1%	-0.7%	/	8.2	Cc1sc2nc[nH]c(=O)c2c1-c1ccc(F)cc1
22	4.0%	-0.2	4.4%	2.8%	8.1%	-91.2*	Cc1sc2nc[nH]c(=S)c2c1-c1ccccc1
23	0.5%	/	/	/	/	/	COc1ccc2ccccc2c1CN1CCc2nnc(CNC(=O)c3cccc(F)c3)n2CC1
24	/	/	/	/	/	-5.4	Cc1onc(-c2ccccc2)c1C(=O)Cl
25	8.4%	4.8	0.5%	-1.9%	0.0%	-117.6*	O=[N+]([O-])c1ccc(Cl)c2c1C1C=CCC1C(c1ccccn1)N2 (stereo not given)
26	1.2%	-2.4	-1.9%	6.4%	-1.3%	6.1	Cc1ccc(S(=O)(=O)NCC(=O)NCc2cc(=O)n(C)c(=O)n2C)cc1
27	0.4%	-0.9	0.1%	5.9%	-3.7%	-100.0*	Cc1ccc(S(=O)(=O)NCC(=O)NCc2cc(=O)n(C)c(=O)n2C)cc1C
28	3.6%	1.3	11.9%	15.8µM*	2.5%	20.8	CCC(=O)Nc1ccc(NC(=O)CSc2nc3c(c(=O)n(C)c(=O)n3C)n2CC)cc1
29	?	1.3	13.7%	9.1%	6.0%	/	O=C(Nc1nc(-c2cccs2)c(C(=O)C(F)(F)F)s1)c1ccccc1
30	-0.2%	0.2	7.7%	25.1µM*	8.1%	1.3	O=C(Nc1nc(-c2cccs2)c(C(=O)C(F)(F)F)s1)c1ccco1
31	10.8%	78.4*	/	/	0.2%	-16.2	CCCNC(=O)Cn1c(=O)/c(=C/c2ccc(-c3ccc([N+](=O)[O-])cc3)o2)s/c1=C\C(=O)C(C)(C)C
32	-0.3%	/	/	/	/	/	O=C(c1cnn(-c2nccc(-c3ccccc3C(F)(F)F)n2)c1C1CC1)N1CCN(CCO)CC1
33	9.4%	-0.8	21.0%	0.4%	1.0%	-88.0*	O=C(Cc1ccc(F)cc1)Nc1nc(-c2ccc(F)c(F)c2)cs1
34	-0.8%	1.8	19.3%	-3.0%	4.9%	-31.9	COc1ccc(CC(=O)Nc2nc(-c3ccc(F)c(F)c3)cs2)cc1
35	0.8%	-0.5	/	1.9%	-4.4%	?	O=C(CN1C(=O)C2CCCCC2C1=O)Nc1nc(-c2ccc(F)cc2)cs1 (stereo not given)
36	1.0%	0.5	/	0.6%	-1.2%	-83.9*	O=C(CN1C(=O)C2CC=CCC2C1=O)Nc1nc(-c2ccc(F)cc2)cs1 (stereo not given)
37	-2.0%	1.0	/	/	-8.6%	-94.1*	O=C(OCc1ccccc1)N(CCCCN(CCCNCc1ccccc1)C(=O)OCc1ccccc1)CCCNCc1ccccc1
38	-0.6%	/	/	/	/	/	O=C(CN1Cc2ccccc2OC(c2ccsc2)C1)N1CCN(Cc2ccc3c(c2)OCO3)CC1 (stereo not given)
39	-1.5%	-1.3	-3.8%	1.1%	0.7%	-74.6*	CC1=NN(c2cccc(C(=O)O)c2)C(=O)/C1=C\C=C/c1ccccc1
40	?	0.0	1.8%	0.8%	2.1%[46.1 µM]	-37.0	CC1=NN(c2ccc(C)cc2)C(=O)/C1=C\C=C\c1ccccc1
41	0.4%	-0.6	-0.2%	15.8µM*	-9.4%	15.1	NS(=O)(=O)c1ccc(CCNC(=O)C2CCN(c3ncnc4c3nc3n4CCCCC3)CC2)cc1
42	0.7%	/	-7.3%	0.6%	/	-3.9	O=C(c1cccc(Cl)c1)N1c2nc(-c3ccco3)nn2C2(CCCCC2)[C@@H]2CCCC[C@@H]21
43	1.8%	/	?	4.1%	/	-64.8*	COc1cccc(C(=O)N2c3nc(-c4ccco4)nn3C3(CCCCC3)[C@@H]3CCCC[C@@H]32)c1
44	-0.2%	/	26.4%	-2.6%	/	-61.3*	O=C(c1cccc(Cl)c1)N1c2ncnn2C2(CCCCC2)[C@@H]2CCCC[C@@H]21
45	0.7%	/	/	/	/	/	Cc1cccc2cc(CN(CC3CCCO3)C(=O)C3CC3)c(N(C)C)nc12 (stereo not given)

Screening data as filed in PubChem BioAssay.
